Where two headings read alike, the source gives them in different places.

Chains of the proteins cited; added tags and fusions are not shown. Residues count along the entry.
UniProt P09483, 31-630: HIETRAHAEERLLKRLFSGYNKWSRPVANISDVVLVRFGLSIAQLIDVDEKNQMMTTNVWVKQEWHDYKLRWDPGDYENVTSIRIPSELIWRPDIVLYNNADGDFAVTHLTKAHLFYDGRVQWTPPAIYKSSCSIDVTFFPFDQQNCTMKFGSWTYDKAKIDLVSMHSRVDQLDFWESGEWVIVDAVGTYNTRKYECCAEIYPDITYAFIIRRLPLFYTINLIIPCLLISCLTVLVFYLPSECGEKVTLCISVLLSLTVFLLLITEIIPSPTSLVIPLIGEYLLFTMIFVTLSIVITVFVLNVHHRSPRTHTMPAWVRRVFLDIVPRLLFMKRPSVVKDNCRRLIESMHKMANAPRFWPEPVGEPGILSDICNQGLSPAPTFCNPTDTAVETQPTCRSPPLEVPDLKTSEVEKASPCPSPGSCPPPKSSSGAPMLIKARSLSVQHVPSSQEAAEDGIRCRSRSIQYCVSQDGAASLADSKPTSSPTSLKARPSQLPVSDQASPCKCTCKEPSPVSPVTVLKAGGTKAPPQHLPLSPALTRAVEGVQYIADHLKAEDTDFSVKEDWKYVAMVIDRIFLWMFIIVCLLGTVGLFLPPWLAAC
UniProt P12390, 25-500: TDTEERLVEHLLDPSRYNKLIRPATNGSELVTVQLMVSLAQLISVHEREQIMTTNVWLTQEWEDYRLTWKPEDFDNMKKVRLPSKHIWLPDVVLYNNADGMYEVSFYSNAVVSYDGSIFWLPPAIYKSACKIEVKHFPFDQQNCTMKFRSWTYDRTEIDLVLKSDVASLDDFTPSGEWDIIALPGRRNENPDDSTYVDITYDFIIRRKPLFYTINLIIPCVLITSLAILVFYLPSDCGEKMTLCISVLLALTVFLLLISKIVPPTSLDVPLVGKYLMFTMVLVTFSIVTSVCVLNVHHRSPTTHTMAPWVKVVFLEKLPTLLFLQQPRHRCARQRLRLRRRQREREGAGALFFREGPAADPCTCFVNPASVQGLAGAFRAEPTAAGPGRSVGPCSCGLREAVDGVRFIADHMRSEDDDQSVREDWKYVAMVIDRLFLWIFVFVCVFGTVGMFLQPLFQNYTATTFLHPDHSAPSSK

One may read the IC50 as the concentration that gives 50% inhibition.

The target of the assay is α4β2* nAChRs (Rattus norvegicus, UniProt P09483+P12390). As to conditions: rat brain slices. The procedure: In Vitro Studies: Ex vivo rat brain slices were prepared at 10 μm thick using a Leica 1850 cryotome and used for [^3H]cytisine binding. […] The apposed phosphor screens were read and analyzed by OptiQuant acquisition and analysis program of the Cyclone Storage Phosphor System (Packard Instruments Co., Boston, Mass.). Region-of-interest of same size were drawn and analyzed on brain regions using OptiQuant software and binding of [^3H]cytisine measured in Digital Light Units/mm^2 (DLU/mm^2). Data was analyzed using following procedure: (a) the non-specific binding of [^3H]cytisine was subtracted for all samples; (b) the specific binding was normalized to 100% (no competitive ligand) and (c) the binding isotherms were fit to the Hill equation (KELL BioSoft software (v 6), Cambridge, U.K.).
Nicotinic receptor binding: The Aβ plaque-α4β2* nAChR multi-agents were tested for their affinity to the α4β2* nAChRs using rat brain slices labeled with [^3H]cytisine. […] Three brain regions analyzed included thalamus, frontal cortex and subiculum.

Where [1] appears, read: read-out: IC50 vs [3H]cytisine, frontal cortex, frontal cortex.
The mark [2] stands for this setting: read-out: IC50 vs [3H]cytisine, subiculum, subiculum.
The mark [3] stands for this setting: read-out: IC50 vs [3H]cytisine, thalamus, thalamus.

With “5-(3′-Ethyl 3-methoxy-4-propyloxycinnamate)-3-(2-(S)-pyrrolidinylmethoxy)pyridine [GKS-006]”, the IC50 reads like this: under setting [1], 5.33 nM; under setting [2], 2.83 nM; under setting [3], 2.8 nM.
Taken in the same sequence, the figures for “5-(3-methoxy-4-propyloxycinnamate)-3-(2-(S)-pyrrolidinylmethoxy)pyridine [GKS-007]” were 3.18 nM, 5.4 nM and 3.44 nM.

Source of the values: patent US11679103B2, “Multi-targeting agents for Alzheimer's disease therapy” (The Regents of the University of California, priority 2018, dated 2023).
